Measurements: patent US20210022342A1, “THE USE OF SAFENERS TO IMPROVE RESISTANCE OF RICE CROP TO HERBICIDES” (Adama Agan Ltd., priority 2018, published 2021)

Columns and labels:
[1] = system: herbicide resistant rice crop (G2096S substitution, ML0831265-01493); experiment: Quizalofop dose response with or without isoxadifen, regrowth, herbicide resistant rice; type: in vivo
Description: Efficacy tests were conducted to determine the effect of quizalofop in the presence of isoxadifen (safener) on herbicide resistant rice crop (rice plants with the G2096S substitution (ML0831265-01493 (ATCC deposit PTA-12933, mutation G2096S) with a focus on synergistic effects.
(§1) The quizalofop (in rates of 0, 2, 6 18, 54 and 162 g/ha) was applied on wild type rice and herbicide resistance rice in the presence or absence of safener (isoxadifen at 100 g/ha).
(§2) Four days after treatment, the tops of the plants were cut off so that approximately 2.5 cm of plant from the top of the soil remain. The plants were allowed to regrow for 3 days at which time the amount of regrowth was weighed by measuring the amount of fresh weight of tissue that regrew.
(§3) The improvement in regrowth was calculated by subtracting the regrowth from a) wild type rice and wild type rice with isoxadifen; b) herbicide resistant rice; and c) herbicide resistant rice and isoxadifen.
(§4) Calculations were done for each application rate of quizalofop. The efficacy of safener alone and mutation alone on decreasing herbicide effect/increasing herbicide resistance were calculated. The relative fresh weight re-growth is the percentage of activity (for Colby).
(§5) The re-growth data was implemented in curve and the synergistic effect was calculated.
(§6) in which E represents the percentage of regrowth expected for the application of safener on mutant rice crop at the defined doses of herbicide. X is the percentage of regrowth for the application of safener on wildtype rice crop at the defined doses of herbicide. Y is the percentage of regrowth for mutant rice crop at the defined doses of herbicide without safener application. When the percentage of regrowth observed for the application of safener on mutant rice crop at the defined doses of herbicide is greater than expected as calculated using the Colby equation, there is a synergistic effect.

[2] = system: wild type rice (Non-Traited Rice); experiment: Quizalofop dose response with or without isoxadifen, regrowth, wild type rice; type: in vivo; details: for Calculated effect of Safener (relative fresh weight re-growth): difference with and without isoxadifen on Non-Traited Rice
Source text: as §1, §2, §3, §4, §5, §6

## CCOC(=O)[C@@H](C)Oc1ccc(Oc2cnc3cc(Cl)ccc3n2)cc1 [Quizalofop, quizalofop P-ethyl]
[1]; Mutant & Safener (isoxadifen 100 g/ha), quizalofop 2 g/ha
  Relative fresh weight re-growth after treatment: 0.81
[1]; Mutant & Safener (isoxadifen 100 g/ha), quizalofop 6 g/ha
  Relative fresh weight re-growth after treatment: 0.85
[1]; Mutant & Safener (isoxadifen 100 g/ha), quizalofop 18 g/ha
  Relative fresh weight re-growth after treatment: 1.00
[1]; Mutant & Safener (isoxadifen 100 g/ha), quizalofop 54 g/ha
  Relative fresh weight re-growth after treatment: 0.62
[1]; Mutant & Safener (isoxadifen 100 g/ha), quizalofop 162 g/ha
  Relative fresh weight re-growth after treatment: 0.13
[1]; Mutant, no safener, quizalofop 2 g/ha
  Relative fresh weight re-growth after treatment: 0.59
[1]; Mutant, no safener, quizalofop 6 g/ha
  Relative fresh weight re-growth after treatment: 0.58
[1]; Mutant, no safener, quizalofop 18 g/ha
  Relative fresh weight re-growth after treatment: 0.32
[1]; Mutant, no safener, quizalofop 54 g/ha
  Relative fresh weight re-growth after treatment: 0.00
[1]; Mutant, no safener, quizalofop 162 g/ha
  Relative fresh weight re-growth after treatment: 0.00
[2]; Non-Traited Rice, quizalofop 2 g/ha
  Relative fresh weight re-growth after treatment: 0.54
[2]; Non-Traited Rice, quizalofop 6 g/ha
  Relative fresh weight re-growth after treatment: 0.18
[2]; Non-Traited Rice, quizalofop 18 g/ha
  Relative fresh weight re-growth after treatment: 0.00
[2]; Non-Traited Rice, quizalofop 54 g/ha
  Relative fresh weight re-growth after treatment: 0.00
[2]; Non-Traited Rice, quizalofop 162 g/ha
  Relative fresh weight re-growth after treatment: 0.00
[2]; Safener & Non-Traited Rice (isoxadifen 100 g/ha), quizalofop 2 g/ha
  Relative fresh weight re-growth after treatment: 1.04
[2]; Safener & Non-Traited Rice (isoxadifen 100 g/ha), quizalofop 6 g/ha
  Relative fresh weight re-growth after treatment: 0.48
[2]; Safener & Non-Traited Rice (isoxadifen 100 g/ha), quizalofop 18 g/ha
  Relative fresh weight re-growth after treatment: 0.00
[2]; Safener & Non-Traited Rice (isoxadifen 100 g/ha), quizalofop 54 g/ha
  Relative fresh weight re-growth after treatment: 0.00
[2]; Safener & Non-Traited Rice (isoxadifen 100 g/ha), quizalofop 162 g/ha
  Relative fresh weight re-growth after treatment: 0.00
[2]; quizalofop 2 g/ha
  Calculated effect of Safener (relative fresh weight re-growth): 0.50
[2]; quizalofop 6 g/ha
  Calculated effect of Safener (relative fresh weight re-growth): 0.30
[2]; quizalofop 18 g/ha
  Calculated effect of Safener (relative fresh weight re-growth): 0.00
[2]; quizalofop 54 g/ha
  Calculated effect of Safener (relative fresh weight re-growth): 0.00
[2]; quizalofop 162 g/ha
  Calculated effect of Safener (relative fresh weight re-growth): 0.00
[2]; wildtype rice with safener vs without
  increase of resistance (ED50) by the safener: 2.7 folds
